Measured values: PubChem BioAssay (NCI)
Some tests of the compounds listed are not included; inactive here does not mean inactive elsewhere.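 Dose response: 5 concentrations. Exposure: 48 h. Format: 96-well plates. Endpoint: linear interpolation; highest concentration if not reached. TGI: total growth inhibition.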

Columns and labels:
Test in all cases: growth of human tumour cells (NCI), 48 h
UACC-257 melanoma = test system: UACC-257 melanoma
SF-295 CNS = test system: SF-295 CNS
NCI-H322M lung = test system: NCI-H322M lung
SK-MEL-5 melanoma = test system: SK-MEL-5 melanoma
HCC-2998 colon = test system: HCC-2998 colon
CAKI-1 renal = test system: CAKI-1 renal
SW-620 colon = test system: SW-620 colon
MDA-MB-231 breast = test system: MDA-MB-231 breast
NCI-H522 lung = test system: NCI-H522 lung
MCF7 breast = test system: MCF7 breast
SK-MEL-28 melanoma = test system: SK-MEL-28 melanoma
RPMI-8226 leukemia = test system: RPMI-8226 leukemia
MDA-MB-435 = test system: MDA-MB-435
U251 CNS = test system: U251 CNS
M14 melanoma = test system: M14 melanoma
NCI/ADR-RES ovarian = test system: NCI/ADR-RES ovarian
OVCAR-3 ovarian = test system: OVCAR-3 ovarian
MOLT-4 leukemia = test system: MOLT-4 leukemia
MDA-N = test system: MDA-N
A549 NSCLC = test system: A549 NSCLC
NCI-H460 lung = test system: NCI-H460 lung
COLO 205 colon = test system: COLO 205 colon
LOX IMVI melanoma = test system: LOX IMVI melanoma
OVCAR-5 ovarian = test system: OVCAR-5 ovarian
SF-268 CNS = test system: SF-268 CNS
SNB-75 CNS = test system: SNB-75 CNS
SF-539 CNS = test system: SF-539 CNS
HCT-116 colon = test system: HCT-116 colon
SN12C renal = test system: SN12C renal
UACC-62 melanoma = test system: UACC-62 melanoma
HS 578T breast = test system: HS 578T breast
EKVX NSCLC = test system: EKVX NSCLC
OVCAR-4 ovarian = test system: OVCAR-4 ovarian
SNB-19 CNS = test system: SNB-19 CNS
IGROV1 ovarian = test system: IGROV1 ovarian
HOP-62 NSCLC = test system: HOP-62 NSCLC
RXF 393 renal = test system: RXF 393 renal
HT29 colon = test system: HT29 colon
786-0 renal = test system: 786-0 renal
NCI-H23 lung = test system: NCI-H23 lung
T-47D breast = test system: T-47D breast
CCRF-CEM leukemia = test system: CCRF-CEM leukemia
DU-145 prostate = test system: DU-145 prostate
SK-OV-3 ovarian = test system: SK-OV-3 ovarian
UO-31 renal = test system: UO-31 renal
PC-3 prostate = test system: PC-3 prostate
SK-MEL-2 melanoma = test system: SK-MEL-2 melanoma
A498 renal = test system: A498 renal
TK-10 renal = test system: TK-10 renal
KM12 colon = test system: KM12 colon
HL-60(TB) leukemia = test system: HL-60(TB) leukemia
ACHN renal = test system: ACHN renal
MALME-3M melanoma = test system: MALME-3M melanoma
SR leukemia = test system: SR leukemia
OVCAR-8 ovarian = test system: OVCAR-8 ovarian
HCT-15 colon = test system: HCT-15 colon
K-562 leukemia = test system: K-562 leukemia
NCI-H226 lung = test system: NCI-H226 lung

Measured: TGI

O=C(OC1CCN(Cc2ccccc2)C1)C(O)(c1ccccc1)c1ccccc1 (stereo not drawn)
> 100 µM: all assays above
